Apparent affinities of Ab-14 variants for a coronavirus HR2 peptide

Source: Li et al. 2023 (doi:10.1038/s41467-023-39022-2), MIT Lincoln Laboratory and A-Alpha Bio; data file from the FLAb repository.

Binding partner: SARS-CoV-2 spike HR2 peptide, sequence PDVDLGDISGINAS.

Parent scFv Ab-14: VH joined to VL by three GGGGS repeats. Changes lie in the heavy chain CDRs alone.
VH: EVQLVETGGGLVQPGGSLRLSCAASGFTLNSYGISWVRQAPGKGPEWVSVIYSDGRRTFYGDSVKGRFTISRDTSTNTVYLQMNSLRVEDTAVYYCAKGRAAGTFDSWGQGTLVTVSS
VL: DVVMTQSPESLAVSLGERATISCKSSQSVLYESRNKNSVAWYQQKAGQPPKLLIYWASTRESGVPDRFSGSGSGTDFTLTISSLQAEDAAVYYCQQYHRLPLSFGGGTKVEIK

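These sequences belong to a second round, designed from the earlier measurements on random variants of the parent. Their group label is 14H_GPLM_Gibbs (GPLM: also part of the Gaussian process libraries; Gibbs: Gibbs sampling; a sequence that several methods proposed may carry one label only). The assay is AlphaSeq: two haploid yeast populations carry antibody and antigen on their surface. Binding brings cells together so that they mate, and sequencing counts the barcode pairs among the diploids. Each replicate has its own calibration line, from reference interactions of the BCL2 family. Mating was done six times.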

Variants are written as CDR1, CDR2 and CDR3 of the heavy chain (limits as in the source). Parent: GFTLNSYGIS, VIYSDGRRTFYGDSVK, GRAAGTFDS.
Affinities are written as log10 Kd with Kd in nM; a lower number is a better binder.
"ND" means that the variant was in the library but no mating with the target was seen in that replicate; the authors take this as a sign of poor binding, and no number exists.
Three control strains display no target. For all heavy chain designs, 1% of the pairings with them gave a signal, with a median of 2.08 and one signal in twenty below 0.84, so weak values seen in few replicates may be background. Also given: how often the same scFv was detected with the empty control strains.
A sequence measured in both rounds can read differently, since the two assays cover different ranges.
The authors' rule: three or more of the six replicates give a measured affinity, fewer mean a poor binder.

Variant GFELNSYGIS | VIYSDGRRTFYGDSVK | GNTAGTFDT showed 0.57, 0.08, -0.25, -0.50, -0.35, -0.21 (controls 0 of 18).
Variant GFTLNSYGIS | VIYSDGQRTFYADSVK | GRAAGTFDL showed 0.86, 1.12, 0.98, 0.55, 0.28, 0.65 (controls 0 of 18).
Variant GFSLNSYGIS | VIYSDGRRTAYGDSVK | GRAAGTFDA showed -0.10, -1.05, ND, -0.31, -0.81, -0.68 (controls 0 of 18).
Variant GFDLNSYGIS | VIYSDGRRTFYADSVK | GRNAGTFDT showed -0.27, -0.32, -0.42, -0.52, -0.51, -0.26 (controls 0 of 18).
Variant GFNLNSYGIS | VIYSDGRRTFYADSVK | GKQAGTFDS showed 0.08, -0.20, -0.03, -0.26, 0.05, -0.18 (controls 0 of 18).
Variant GFSLNSYGIS | VIYSDGRRTFYADSVK | GWAAGTFDK showed 0.52, 1.00, ND, ND, ND, ND (controls 0 of 18).
Variant GFSLNSYGIS | VIYSDGRRTFYGDSVK | GKTAGTFDL showed 0.21, 0.26, 0.67, 0.08, 0.43, 0.28 (controls 0 of 18).
Variant GFDLNSYGIS | VIYSDGMRTFYADSVK | GRQAGTFDS showed 0.46, 0.12, 0.21, 0.26, -0.12, 0.47 (controls 0 of 18).
Variant GFTLNSYGIS | VIYSDGRRTFYADSVK | GQEAGTFDT showed 0.23, 0.30, -0.38, -0.22, -0.15, 0.16 (controls 0 of 18).
Variant GFSLNSYGIS | VIYSDGRRTFYKDSVK | GRQAGTFDS showed 1.38, 1.15, 0.61, 0.77, 1.37, 1.19 (controls 0 of 18).
Variant GFNLNSYGIS | VIYSDGRRTFYVDSVK | GQTAGTFDS showed ND, ND, ND, ND, ND, ND (controls 0 of 18).
Variant GFSLNEYGIS | VIYSDGRRTFYGDSVK | GKQAGTFDS showed 1.43, 0.15, 1.74, 0.85, 0.99, 0.84 (controls 0 of 18).
Variant GFSLNSYGIS | VIYSDGRRTFYDDSVK | GREAGTFDS showed 0.23, 0.14, -0.22, -0.33, -0.26, -0.14 (controls 0 of 18).
Variant GFTLNDYGIS | VIYSDGRRTFYSDSVK | GRTAGTFDA showed -0.27, -0.79, -0.29, -0.46, -1.13, -0.78 (controls 0 of 18).
Variant GFNLNSYGIS | VIYSDGRRTFYADSVK | GNEAGTFDS showed 0.16, 0.01, -0.09, -0.19, -0.20, -0.05 (controls 0 of 18).
Variant GFELNSYGIS | VIYSDGRRTFYIDSVK | GEAAGTFDK showed 0.89, 0.44, 0.64, 0.60, 0.72, 0.49 (controls 0 of 18).
Variant GFELNSYGIS | VIYSDGKRTFYSDSVK | GQAAGTFDS showed 1.29, 0.45, -0.08, 0.72, 0.54, 1.78 (controls 0 of 18).
Variant GFSLNSYGIS | VIYADGRRTFYGDSVK | GKAAGTFDQ showed 0.76, 0.57, 0.41, 0.08, 1.66, 1.40 (controls 0 of 18).
Variant GFSLNSYGIS | VIYSDGRRTFYGDSVK | GKTAGTFDQ showed 0.46, 0.08, 0.17, -0.01, 0.22, 0.22 (controls 0 of 18).
Variant KFSLNSYGIS | VIYSDGRRTFYVDSVK | GRTAGTFDS showed ND, ND, ND, ND, ND, ND (controls 0 of 18).
Variant GFSLNWYGIS | VIYSDGRRTFYIDSVK | GHAAGTFDS showed 1.39, 0.72, 0.56, 1.51, 1.96, ND (controls 0 of 18).
Variant GFDLNSYGIS | VIYSDGRRTFYIDSVK | GQVAGTFDS showed 0.80, -0.30, -0.09, -0.35, -0.10, 0.02 (controls 0 of 18).
Variant GFTLNSYGIS | VIYSDGRRTFYADSVK | GREAGTFDK showed 1.11, 1.00, 0.43, 0.60, 0.53, 0.97 (controls 1 of 18).
Variant GFALNSYGIS | VIYSDGRRTFYIDSVK | GNAAGTFDS showed 0.42, 0.34, 1.11, 0.42, 2.05, 1.00 (controls 1 of 18).
Variant GFTLNSYGIS | VIYSDGQRTFYADSVK | GRQAGTFDS showed 0.44, 0.19, 1.27, 0.78, 0.73, 0.54 (controls 0 of 18).
Variant GFDLNSYGIS | VIYSDGKRTFYGDSVK | GKAAGTFDS showed 0.35, 0.43, 0.38, 0.19, 0.29, 0.30 (controls 1 of 18).
Variant GFSLNSYGIS | VIYADGRRTFYGDSVK | GKAAGTFDR showed 0.73, 0.53, 0.07, 0.82, 0.21, 1.42 (controls 0 of 18).
Variant GFSLNSYGIS | VIYSDGRRTFYIDSVK | GKVAGTFDS showed 0.82, 0.68, 0.89, 1.18, 1.80, 1.20 (controls 0 of 18).
Variant GFTLESYGIS | VIYADGRRTFYGDSVK | GRAAGTFDD showed -0.05, -0.10, -0.04, 0.67, -0.37, 0.30 (controls 0 of 18).
Variant GFSLNSYGIS | VIYSDGRRTFYGDSVK | GWVAGTFDK showed 0.20, 0.21, 0.38, 0.63, -0.05, 1.74 (controls 0 of 18).
Variant GFSLNSYGIS | VIYSDGRRTFYSDSVK | GREAGTFDT showed 0.22, -0.10, 0.94, -0.37, -0.67, 0.22 (controls 1 of 18).
Variant GFTLESYGIS | VIYSDGRRTFYGDSVK | GQTAGTFDS showed 1.19, 0.85, 0.73, 2.13, 0.86, 0.89 (controls 0 of 18).
Variant GFDLNSYGIS | VIYSDGRRTFYGDRVK | GRTAGTFDS showed 0.69, 0.40, -0.36, 0.83, -0.51, -0.08 (controls 0 of 18).
Variant GFSLNSYGIS | VIYSDGRRTFYTDSVK | GQVAGTFDS showed -0.27, -0.42, -0.04, -0.25, -0.46, -0.09 (controls 0 of 18).
Variant GFDLNSYGIS | VIYSDGRRTFYIDSVK | GQAAGTFDA showed 0.09, 0.55, -0.11, -0.50, 0.56, 1.12 (controls 0 of 18).
Variant GFELNDYGIS | VIYSDGRRTFYGDSVK | GRQAGTFDS showed 0.75, 0.98, 1.14, 0.65, 0.82, 1.51 (controls 2 of 18).

Top 2 of the variants detected in all replicates, tightest first:

GFTLNDYGIS | VIYSDGRRTFYSDSVK | GRTAGTFDA: -0.27, -0.79, -0.29, -0.46, -1.13, -0.78 (controls 0 of 18).
GFDLNSYGIS | VIYSDGRRTFYADSVK | GRNAGTFDT: -0.27, -0.32, -0.42, -0.52, -0.51, -0.26 (controls 0 of 18).